# Ab-95 light chain CDR variants: yeast mating affinities

Values reported by Engelhart et al. 2022, doi:10.1038/s41597-022-01779-4 (FLAb copy).

Target: peptide PDVDLGDISGINAS, taken from heptad repeat 2 (HR2) of SARS-CoV-2 spike.

Ab-95 is the parent antibody, in scFv form: VH, then a 15-residue (Gly4Ser)3 linker, then VL. The heavy chain is unchanged in all variants.
VH: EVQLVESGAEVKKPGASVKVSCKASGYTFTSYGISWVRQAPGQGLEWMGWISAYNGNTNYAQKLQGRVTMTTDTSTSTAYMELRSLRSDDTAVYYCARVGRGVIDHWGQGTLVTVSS
VL: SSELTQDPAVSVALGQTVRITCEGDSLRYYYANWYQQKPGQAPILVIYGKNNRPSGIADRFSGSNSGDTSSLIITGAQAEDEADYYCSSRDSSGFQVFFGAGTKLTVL

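In library AAYL52, one, two or three CDR residues were substituted; doubles and triples were drawn at random. In AlphaSeq, yeast of one mating type display the scFv and yeast of the other type display the target. Binding brings cells together so that they mate, and sequencing counts the barcode pairs among the diploids. Scores were corrected for input abundance and mapped to Kd with protein pairs of known affinity run in the same pool. Each pool was mated in three replicate cultures.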

Positions count from residue 1 of the parent VL; D25Q puts Q in place of D.
Kd is apparent (estimated from mating counts) and averaged on the log scale over replicates with a signal. Smaller is tighter.
"not detected" means that the variant was in the library but no mating with the target was seen in any replicate; the authors take this as a sign of poor binding, and no number exists.
For reference, the parent read 200 nM as the reference entry and 180 nM as a member of this library.

changes,Kd (apparent),detected
D25Q/N52K/F95I,1.7 µM,3 of 3
Y31H/N52F/S93A,86 nM,3 of 3
R53K/S88P/G94V,2.2 µM,3 of 3
S26A/N33W/G49M,not detected,0 of 3
A32F/G49L/S55R,96 µM,2 of 3
L27Y/Y29M/P54W,6.6 µM,3 of 3
G49D/P54M/D91P,280 nM,3 of 3
G49A/P54A/S55H,4.5 µM,3 of 3
G24K/L27Y/G94A,120 µM,1 of 3
Y31M/N52Q/P54S,56 nM,3 of 3
L27C/Y29H/K50T,not detected,0 of 3
D25W/A32H/G49R,33 µM,2 of 3
P54Q/D91C/V97M,8.4 µM,3 of 3
K50N/R53G/Q96C,4.0 µM,3 of 3
Y31R/A32C/Q96W,930 nM,1 of 3
E23Y/Q96F,16 µM,2 of 3
G24V/R53G/G94T,not detected,0 of 3
S55P/S93T/G94N,270 nM,3 of 3
R28E/S55I/D91W,610 nM,3 of 3
S93A/F95T/V97T,410 nM,3 of 3
A32D/G49Q/Q96K,5.2 µM,1 of 3
N51K/S55C/S89R,5.5 µM,1 of 3
R28H/Y29I/N51A,2.2 µM,3 of 3
D25F/Y30C/K50C,4.9 µM,2 of 3
K50C/N51Q/S92C,not detected,0 of 3
Y30G/S88L/G94L,45 nM,3 of 3
A32T/Q96R,1.1 µM,3 of 3
Y31G/N33I/S92E,83 nM,3 of 3
G24T/K50I/R90C,not detected,0 of 3
K50N/R90K/D91I,not detected,0 of 3
D25C/S26G/Q96K,480 nM,3 of 3
D25W/S89C/F98E,4.3 µM,3 of 3
K50A/P54H/S88P,38 µM,1 of 3
G49A/N51L/F95A,not detected,0 of 3
G49R/S88D/G94H,43 µM,2 of 3
Y29A/N51S/S92L,1.9 µM,2 of 3
D25M/N51E/S55Q,550 nM,3 of 3
Y31Q/G49M/R53V,730 nM,1 of 3

The remaining entries, values ahead:

Kd (apparent),detected,changes
3.7 µM,2 of 3,Y30W/S89N
580 nM,3 of 3,K50R/D91N
220 nM,3 of 3,N51D/S89W/F98R
140 nM,3 of 3,S89C/R90L/Q96S
3.7 µM,1 of 3,L27W/Y30E/P54Y
48 nM,3 of 3,Y29I/Y30A/F95T
3.4 µM,2 of 3,P54W/Q96D
610 nM,3 of 3,E23W/N52A/G94T
5.9 µM,1 of 3,E23N/L27I/N52C
220 µM,2 of 3,N33C/P54M/S55Y
270 nM,3 of 3,S88C/D91T/Q96V
860 nM,3 of 3,Y29N/K50W/R90G
not detected,0 of 3,N33C/R53Y/S92T
54 nM,3 of 3,S26Y/Y30N/F95I
9.6 µM,3 of 3,Y30P/R90Y/S93A
1.1 µM,3 of 3,G24P/R28K/A32E
3.5 µM,1 of 3,N33T/R90K/F95V
16 µM,3 of 3,Y30R/R53Y/V97F
not detected,0 of 3,A32D/R90W/S93A
6.8 µM,1 of 3,G24E/Y31I/P54C
20 µM,1 of 3,Y31I/A32Q/F98T
32 µM,1 of 3,N51W/S55E/D91R
not detected,0 of 3,S26L/G49H/F95T
21 nM,3 of 3,Y29V/Y31D/S89C
10 µM,2 of 3,A32R/Q96F/V97M
1.1 µM,1 of 3,R53L/G94C
10 nM,3 of 3,Y30Q/S88N/F98T
12 µM,3 of 3,N52R/S92N/G94E
14 µM,1 of 3,G49T/K50D/P54C
520 nM,1 of 3,G24M/Y29L/N51S
25 µM,3 of 3,E23N/R90G/F95Q
13 µM,1 of 3,Y30C/Y31R/N33L
4.0 µM,3 of 3,A32G/S55Q/G94D
590 nM,3 of 3,L27A/S93V
7.5 µM,2 of 3,N33R/K50T/D91H
14 µM,3 of 3,E23P/Y29H/V97T
35 nM,3 of 3,Y29H/Y31H
1.4 µM,3 of 3,E23R/N33M

The opening 7 entries, copied out:

changes,Kd (apparent),detected
D25Q/N52K/F95I,1.7 µM,3 of 3
Y31H/N52F/S93A,86 nM,3 of 3
R53K/S88P/G94V,2.2 µM,3 of 3
S26A/N33W/G49M,not detected,0 of 3
A32F/G49L/S55R,96 µM,2 of 3
L27Y/Y29M/P54W,6.6 µM,3 of 3
G49D/P54M/D91P,280 nM,3 of 3

As a blank, each scFv also met three strains without target: over library AAYL52, 28% of these pairings were detected, typically at 8.2 µM and seldom below 800 nM.